Amino acid sequences for entries named in this document (tags omitted).
UniProt Q9NSU2, whole entry: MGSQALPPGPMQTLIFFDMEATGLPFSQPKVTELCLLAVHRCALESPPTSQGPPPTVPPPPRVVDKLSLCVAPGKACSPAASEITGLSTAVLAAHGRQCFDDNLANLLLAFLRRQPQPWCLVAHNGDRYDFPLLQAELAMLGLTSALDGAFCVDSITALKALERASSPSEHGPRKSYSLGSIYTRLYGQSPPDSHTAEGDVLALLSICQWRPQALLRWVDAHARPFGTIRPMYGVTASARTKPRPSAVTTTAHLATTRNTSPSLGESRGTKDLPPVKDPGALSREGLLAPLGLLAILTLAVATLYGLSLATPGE
UniProt Q9BQ50, whole entry: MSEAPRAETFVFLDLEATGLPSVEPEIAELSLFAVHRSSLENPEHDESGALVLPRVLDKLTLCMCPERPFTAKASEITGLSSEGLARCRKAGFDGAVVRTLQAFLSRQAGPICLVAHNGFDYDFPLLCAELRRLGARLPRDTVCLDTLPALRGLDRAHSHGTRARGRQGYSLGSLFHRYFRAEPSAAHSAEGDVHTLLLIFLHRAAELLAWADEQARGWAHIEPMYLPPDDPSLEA

In US20230233541A1, “SUBSTITUTED BENZAMIDES AS MODULATORS OF TREX1” (Constellation Pharmaceuticals, Inc., priority 2020, published 2023):

How the values were obtained:
full length human TREX1 = full length human TREX1 (Homo sapiens, UniProt Q9NSU2); assay: TREX1 Biochemical Assay (fluorescence assay, degradation of dsDNA substrate); settings: read-out: hTREX1 EC50; 150 pM TREX1, 60 nM dsDNA substrate, 25 minutes at room temperature
Procedure: (§1) Degradation of the dsDNA liberates free fluorophore to produce a fluorescent signal. Specifically, 7.5 μL of N-terminally His-Tev tagged full length human TREX1 (expressed in E. coli and purified in house) in reaction buffer (50 mM Tris (pH 7.4), 150 mM NaCl, 2 mM DTT, 0.1 mg/mL BSA, 0.01% (v/v) Tween-20 and 100 mM MgCl2) was added to a 384-well Black ProxiPlate Plus (Perkin Elmer) which already contained compound (150 nL) at varying concentrations as a 10-point dose-response in DMSO. To this was added 7.5 μL of dsDNA substrate (Strand A: 5′ TEX615/GCT AGG CAG 3′; Strand B: 5′ CTG CCT AGC/IAbRQSp (Integrated DNA Technologies)) in reaction buffer. Final concentrations were 150 pM TREX1, 60 nM dsDNA substrate in reaction buffer with 1.0% DMSO (v/v). After 25 minutes at room temperature, reactions were quenched by the addition of 5 μL of stop buffer (same as reaction buffer plus 200 mM EDTA). […] After a 5-minute incubation at room temperature, plates were read in a laser sourced Envision (Perkin-Elmer), measuring fluorescence at 615 nm following excitation w/570 nm light. IC50 values were calculated by comparing the measured fluorescence at 615 nm ratio relative to control wells pre-quenched w/stop buffer (100% inhibition) and no inhibitor (0% inhibition) controls as using non-linear least square four parameter fits and either Genedata or GraphPad Prism (GraphPad Software, Inc.).

[1] = target: human TREX2 (residues M44-A279) (Homo sapiens, UniProt Q9BQ50); assay: TREX2 Biochemical Assay (fluorescence assay, degradation of dsDNA substrate); settings: read-out: hTREX2 EC50; 2.5 nM TREX2, 60 nM dsDNA substrate, 25 minutes at room temperature
Procedure: as §1, with “tagged” for “tagged full length”, “TREX2 (residues M44-A279, expressed” for “TREX1 (expressed”, “(IDT))” for “(Integrated DNA Technologies))”, “2.5 nM TREX2,” for “150 pM TREX1,”

EC50 (full length human TREX1) [µM]	EC50 [1] [µM]	Structure (SMILES)
> 10	> 100	O=C(c1ccc2ccccc2c1)N(Cc1cccnc1)Cc1cc(Cl)cc(Cl)c1
< 0.1	1 to 10	Cc1c(Cl)cccc1CN(Cc1ccc(C(=O)O)nc1)C(=O)c1cc(F)cc(F)c1
